Test [1] concerns A2780 cells (ovarian cancer cells). Put plainly: Cell viability of A2780 cells (Cell-titer Glo). The note with it: read-out: A2780, culture for 3 days. The protocol:
(§1) In order to confirm the inhibitory effect of the compound represented by formula 1 according to the present invention on the growth of MCF7, MCF7-SP, A2780 or A2780-SP cells, the following experiment was performed, and the results are shown in Tables 4 and 5 below.
In addition, A2780 cells (ovarian cancer cells) were plated in a 96-well plate at the density of 3000 viable cells per well, and cultured in RPMI-1640 medium supplemented with 10% FBS and 1% penicillin/streptomycin.
On the next day of culture, the cells were treated with the compound of Examples 57, and 69 to 144, followed by culture for 3 days. Cell viability was evaluated by Cell-titer Glo (Promega, WC, USA), and luciferase activity was detected using a Tecan plate reader (Biocompare, USA).

By UniProt entry, the sequences of proteins in these tests, tags left out.
UniProt Q13526, whole entry: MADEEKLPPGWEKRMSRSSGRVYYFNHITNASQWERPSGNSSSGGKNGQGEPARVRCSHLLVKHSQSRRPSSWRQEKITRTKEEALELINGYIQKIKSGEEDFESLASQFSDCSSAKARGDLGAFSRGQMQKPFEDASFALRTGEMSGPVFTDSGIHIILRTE

Test [2] concerns A2780-SP cells (ovarian cancer stem cells). Put plainly: Sphere cell viability of A2780-SP cells (Cell-titer Glo). Conditions: read-out: A2780-SP, culture for 8 days. The protocol:
as §1
On the other hand, A2780-SP cells (ovarian cancer stem cells) were plated in an Ultra-Low Attachment round bottom 96-well plate (corning) at the density of 1,500 viable cells per well, and cultured in cancer stem cell medium. The cancer stem cell medium is composed of the neurobasal medium supplemented with 20 ng/ml of bFGF, 10 ng/ml of EGF, […] of amphotericin B, HEPES, Glutamax and B27.
On the next day of culture, the cells were treated with the compound of Examples 57, and 69 to 144, followed by culture for 8 days. The medium containing the compound was added thereto once again on the 4th day. Sphere cell viability was evaluated by Cell-titer Glo (Promega, WC, USA), and luciferase activity was detected using a Tecan plate reader (Biocompare, USA).

The target in the next test is Pin1 (Homo sapiens, UniProt Q13526). In words: Evaluation of Pin1 enzyme inhibitory activity (Sensolyte Green Pin1 assay kit). The note with it: read-out: Pin 1 inhibition; concentration at which the Pin1 enzyme activity is inhibited; 2 hours at room temperature, fluorescence 490 nm/520 nm. As to the method:
In order to evaluate the Pin1 enzyme inhibitory activity of the compound represented by formula 1 according to the present invention, the following experiment was performed, and the results are shown in Table 2 below.
The enzyme activity of Pin1 protein was measured using a sensolyte Green Pin1 assay kit of Anaspec. The substrate was diluted in a buffer at a ratio of 1:100 to prepare a concentration of 1 μM, and the protein was diluted in a buffer at a ratio of 1:20 to prepare a concentration of 50 μg/ml. In addition, a developing solution was prepared by diluting thereof in a buffer at a ratio of 1:100.
The compound prepared in each example was diluted with DMSO and prepared at a concentration of 100 μM, 10 μM, 1 μM or 0.1 μM using a buffer. After sequentially adding 10 μl of the compound prepared in each Example diluted to four concentrations according to the above method, 10 μl of Pin1 protein, and 30 μl of the developing solution to each well of a black 96-well plate, […]. Finally, 50 μl of the substrate was added to each well of the plate, and the enzyme reaction was carried out after shaking the plate for 10 seconds.
Then, the plate was incubated for 2 hours at room temperature in an environment without light, and the fluorescence values at 490 nm/520 nm wavelength were measured using a device of Synergy Neo (Tecan). […]

In US12583818B2 (DAEGU-GYEONGBUK MEDICAL INNOVATION FOUNDATION, priority 2020, dated 2026) one finds IC50 data, which are given here for one compound.

For `O=S(=O)(NCCCc1c[nH]c2ccc(Cl)cc12)c1ccc(Nc2cccc(N3CCNCC3)c2)cc1`, the IC50 was 1000 to 10000 nM in test [1], 1000 to 10000 nM in test [2] and under 1000 nM at Pin1.
